Target: rat mGlu2 (Rattus norvegicus (Rat), UniProt P31421)
Assay: mGlu2 Ca2+ flux assay
Assay type: cell-based
Settings: NAM, glutamate EC80; >30,000 = no measurable activity
Procedure: Gα15 HEK293 cells stably expressing rat mGlu2 were plated in black-walled, clear-bottomed, poly-D-lysine coated 384-well plates in 20 μL of assay medium (DMEM containing 10% dialyzed FBS, 20 mM HEPES, and 1 mM sodium pyruvate) at a density of 12K cells/well. The cells were grown overnight at 37° C. in the presence of 5% CO2. The next day, medium was removed and the cells incubated with 20 μL of […] Fluo-4, AM prepared as a 2.3 mM stock in DMSO and mixed in a 1:1 ratio with 10% (w/v) pluronic acid F-127 and diluted in assay buffer (Hank's balanced salt solution, 20 mM HEPES, and 2.5 mM probenecid) for 45 minutes at 37° C. […]
Ca^2+ flux was measured using the Functional Drug Screening System (FDSS7000, Hamamatsu, Japan). After establishment of a fluorescence baseline for about 3 seconds, the compounds of the present invention were added to the cells, and the response in cells was measured. 2.3 minutes later an EC20 concentration of the mGlu2 receptor agonist glutamate was added to the cells, and the response of the cells was measured for 1.9 minutes; an EC80 concentration of agonist was added and readings taken for an additional 1.7 minutes. […] Calcium fluorescence measures were recorded as fold over basal fluorescence; raw data was then normalized to the maximal response to glutamate. […]

Sequences of proteins named here, by UniProt entry; tags and fusion partners are left off. Residues count along the entry.
UniProt P31421, 19-872: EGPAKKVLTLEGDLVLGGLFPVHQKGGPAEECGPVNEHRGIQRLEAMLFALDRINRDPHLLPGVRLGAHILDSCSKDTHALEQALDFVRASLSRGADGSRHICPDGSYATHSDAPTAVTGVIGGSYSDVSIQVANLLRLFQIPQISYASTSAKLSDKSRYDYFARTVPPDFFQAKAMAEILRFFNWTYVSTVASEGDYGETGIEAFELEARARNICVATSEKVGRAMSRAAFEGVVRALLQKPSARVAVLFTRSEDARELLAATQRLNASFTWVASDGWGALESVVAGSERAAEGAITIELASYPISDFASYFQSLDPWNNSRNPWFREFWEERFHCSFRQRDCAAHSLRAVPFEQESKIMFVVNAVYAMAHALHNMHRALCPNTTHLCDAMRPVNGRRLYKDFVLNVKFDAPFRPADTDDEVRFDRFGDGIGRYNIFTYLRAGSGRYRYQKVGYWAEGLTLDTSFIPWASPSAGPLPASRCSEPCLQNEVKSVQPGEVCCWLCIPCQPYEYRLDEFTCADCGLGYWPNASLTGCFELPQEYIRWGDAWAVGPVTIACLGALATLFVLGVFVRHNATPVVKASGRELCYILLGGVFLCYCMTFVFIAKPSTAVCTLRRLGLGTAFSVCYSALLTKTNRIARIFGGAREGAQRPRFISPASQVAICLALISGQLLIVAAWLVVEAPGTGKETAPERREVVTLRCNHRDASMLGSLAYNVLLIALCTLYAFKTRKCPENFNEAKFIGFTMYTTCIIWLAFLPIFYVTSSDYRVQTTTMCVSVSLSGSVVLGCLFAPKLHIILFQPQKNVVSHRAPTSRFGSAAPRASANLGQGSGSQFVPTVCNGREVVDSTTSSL

With O=c1cc(OCCOc2ccccc2)ccn1-c1cc(F)cc(F)c1 [Compound 21, 1-(3,5-difluorophenyl)-4-(2-phenoxyethoxy)pyridin-2(1H)-one] the IC50 was greater than 30 µM.
